Patent US7585839B2, “Medical uses of intercellular communication facilitating compounds” (Zealand Pharma A/S, priority 2001, dated 2009)
Values joined by “and” are separate entries in the source; they are usually repeats but may differ in a detail not shown here. Equal values may be shown once.

Test system: reentry ventricular tachycardia
Assay: Ventricular reentry arrhythmias in dogs after coronary artery occlusion
Format: in vivo
Settings: second dog, throughout the testing period
Method: Three dogs were studied in the anesthetized, open chest state to facilitate electrode placement for mapping. α-chloralose was given as a bolus (200 mg/kg) and then a constant infusion at 8 mg/kg/hr (dissolved in polyethylene glycol, MW=200). The femoral vein and artery was cannulated for administration of fluid and drugs and for measurement of ascending aortic pressure, respectively.
The sinus node was clamped and the atrial appendage was paced with a programmable stimulator with constant current outputs at two times diastolic threshold. Pacing rate was ≧200 b/min to control heart rates. […] Endocardial Effective Refractory Period (ERP) was measured by the standard extrastimulus technique. Late ventricular diastolic threshold was measured during each intervention; the pacing current was four times threshold.
Test sites were chosen along the shaft of 16 pole needles (J. Kassell, Fayetteville, N.C.); each pole completely surrounds the needle shaft to prevent directionality of needle orientation from recording of adjacent Purkinje strands. Six bipolar electrograms (1 mm spacing) were recorded sequentially down the shaft of the needle by amplifying up to 1000 times, filtering from 3-1300 Hz and recording via oscilloscope during atrial pacing. Four intramural electrograms are recorded on each multipolar needle. […]

Ac-D-Tyr-D-Pro-D-4Hyp-Gly-D-Ala-Gly-NH2 [Compound 2]
Effective refractory period in the two sites of induction, unchanged: 163 ms and 144 ms
